The values below come from patent publication US5714467A, “Antibacterial and antimalarial hybrid peptides” (The Rockefeller University, priority 1993, dated 1998).

This data set concerns Sheep Red Cells. As to the kind of experiment: lysis of sheep red blood cells (lysis assay or SRC plate assay). Type of data set: cell-based. Conditions: running text. How it is done: These values were obtained by either the lysis assay normally used for melittin or by an adaptation of the antibacterial inhibition zone assay of the above-cited Hultmark et al articles to plates with sheep red cells (SRC). With respect to the latter, sterile agarose plates contained 6 ml of medium With 1% agarose, 0.9% NaCl and 10% SRC suspended in Alsevers solution. A dilution series of peptide was applied in 3 mm wells each loaded with 3 μl of the respective samples. The plates were incubated at 30° C. for 24 h, the zones were recorded and LC values calculated as described in the Hultmark et al articles. Clear zones were recorded after a few hours of incubation and the use of such data gave an LC value of the same order as readings after 24 h. This plate assay is faster and more convenient than the lysis assay normally used for melittin.

Regarding `CC[C@H](C)[C@H](NC(=O)CN)C(=O)NCC(=O)N[C@@H](C)C(=O)N[C@H](C(=O)N[C@@H](CC(C)C)C(=O)N[C@@H](CCCCN)C(=O)N[C@H](C(=O)N[C@@H](CC(C)C)C(=O)N[C@H](C(=O)N[C@H](C(=O)NCC(=O)N[C@@H](CC(C)C)C(=O)N1CCC[C@H]1C(=O)N[C@@H](C)C(=O)N[C@@H](CC(C)C)C(=O)N[C@H](C(=O)N[C@@H](CO)C(=O)N[C@@H](Cc1c[nH]c2ccccc12)C(=O)N[C@H](C(=O)N[C@@H](CCCCN)C(=O)N[C@@H](CCCNC(=N)N)C(=O)N[C@@H](CCCCN)C(=O)N[C@@H](CCCNC(=N)N)C(=O)N[C@@H](CCC(N)=O)C(=O)N[C@@H](CCC(N)=O)C(N)=O)[C@@H](C)CC)[C@@H](C)CC)[C@@H](C)O)[C@@H](C)O)C(C)C)C(C)C` [M(1-26), Melittin], the “concentration lytic to sheep red blood cells” value fell in the range of 4 to 6 µM.
